Shown are actives, neighbours in structure and some others; about 16% of the full set was active somewhere.
DT40 TDP1 no CPT = qHTS for Inhibitors of human tyrosyl-DNA phosphodiesterase 1 (TDP1): qHTS in cells in absence of CPT; DT40 Tdp1-/- hTDP1 cells, no CPT, ATP luminescence, 48 h; Potency, µM (doses to about 46.2 µM), inactives show at the top dose activity change, negative = growth inhibition, most hits filed as inhibitors; hit rate 15% among 420,000; AID 686978, 2013; also: potency is read from the fitted curve at half-maximal effect; % is scaled to controls: 0 for no effect and ±100 for the full control effect; nearly all actives have a fitted effect of over 55% in size
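Stably hTDP1-transfected Tdp1-null chicken DT40 cells were treated with library compounds minus camptothecin and grown for at least 48 hr at 37 °C, after which cellular ATP was quantified by luminescence.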
DT40 TDP1 CPT = DT40-hTDP1 cell growth loss with CPT; chicken DT40 Tdp1-/-;hTDP1 cells + 20 nM CPT, ATP luminescence, 48 h; Potency, µM (series often up to 46.2 µM), for the others: at the highest dose activity change, negative = growth inhibition, hits mostly inhibitors; hit rate 12% among 420,000; also: potency is read from the fitted curve at half-maximal effect; % is scaled to controls: 0 for no effect and ±100 for the full control effect; nearly all actives have a fitted effect of over 55% in size
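Cell growth measured by CellTiter-Glo luminescence after a minimum 48 h, 37 C compound exposure with 20 nM CPT in Tdp1-knockout DT40 cells stably expressing hTDP1, seeded 400/well; qHTS titration format.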
uPA generation = cell surface uPA generation inhibition. Potency, µM (top dose mostly 38.3 µM), without a hit: at the highest dose activity change, negative = inhibition, actives largely listed as inhibitors. cell surface uPA generation assay, qHTS. hit rate 0.31% among 330,000; active = well fitted inhibition curve with a large enough effect; inconclusive = small, poorly fitted or top-dose-only effect; inactive = no such curve, though single readings can be large or run the other way; tested in mouse RAW 264.7 cells; also: potency is read from the fitted curve at half-maximal effect; % is scaled to controls: 0 for no effect and ±100 for the full control effect; nearly all actives have a fitted effect of over 55% in size
TDP1 inh = inhibitors of human tyrosyl-DNA phosphodiesterase TDP1; AID 485290; recombinant TDP1, AlphaScreen DNA substrate cleavage; hit rate 0.28% among 350,000; Potency, µM (doses to about 130 µM), inactives show at the highest dose activity change, negative = inhibition, usual class: inhibitors; Q9NUW8; also: potency is read from the fitted curve at half-maximal effect; % is scaled to controls: 0 for no effect and ±100 for the full control effect; nearly all actives have a fitted effect of over 40% in size
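E. coli-derived human Tdp1, 1 nM final. Cpd preinc 15 min RT; substrate 15 nM final, 5 min RT; AS bead mix 10 ug/ml final, 10 min RT. Signal loss = tyrosine-FITC cleavage. No-enzyme wells = max signal.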
miR-21 reporter = miR-21 reporter, rising signal; HeLa miR-21 FLuc reporter, luciferase, 48 h; Potency, µM (doses to about 38.3 µM), for inactives: at the highest dose reporter change, positive = more light; 340,000 tested, under 10 active; AID 2288; active = well fitted rising curve with a large enough effect; inconclusive = small, poorly fitted or top-dose-only effect; inactive = no such curve, though single readings can be large or run the other way;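 further: % of control where 0% means no effect; miR-21 action dims this reporter so a rising signal means less miR-21 action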
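Compounds were titrated across several concentrations (up to approximately 40 uM) and incubated 48 hours with HeLa miR-21-FLuc reporter cells (miR-21 target sequence downstream of FLuc, endogenous miR-21). Readout was firefly luciferase luminescence after lytic detection reagent.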
Starred values were filed as active, the others as inactive; ? = inconclusive; / = no result given; [ ] = remark or other dose. Unless noted, calls follow the shape of the dose curve; as a rule, active = well fitted curve in the direction sought with a large enough effect; inconclusive = small, poorly fitted or top-dose-only effect, or another doubt; inactive = no such curve, though single readings can be large; an effect the other way counts as inactive or inconclusive.

SMILES	DT40 TDP1 no CPT	DT40 TDP1 CPT	uPA generation	TDP1 inh	miR-21 reporter
NS(=O)(=O)c1ccc(CCNC(=O)c2coc3ccccc3c2=O)cc1	-14.5%	1.6%	3.8%	/	3.7%
COc1ccc(NC(=O)C2CCCN(c3nn4c(=O)cc(C)nc4s3)C2)cc1 (stereo not given)	?	-8.6%	3.4%	/	-2.2%
COc1nc(C)nc(C)c1Oc1ccc(Cl)cc1Cl	-27.2%	-6.1%	5.6%	/	-5.6%
Oc1ccc(C[C@H]2CN([C@@H](Cc3ccccc3)CN3CCC[C@@H]3CN3C(=S)NC[C@@H]3Cc3ccccc3)C(=S)N2CC2CCCCC2)cc1	25.9µM*	?	/	/	/
Oc1ccc(C[C@H]2CNC(=S)N2CC2CCCN2C[C@H](Cc2ccccc2)N2C[C@H](Cc3ccc(O)cc3)N(CC3CCCCC3)C2=S)cc1 (stereo not given in full)	20.6µM*	?	/	/	/
Cc1cc(NC(=O)Cc2ccccc2)cc(-c2nc3ccccc3o2)c1O	/	/	/	5.8%	-3.3%
CCN(CC)C(=O)CSc1nc2sc3c(c2c(=O)n1CCCOC)CCC3	?	?	-2.9%	/	-1.7%
COc1ccc(C(C(=O)Nc2ccc(C(C)C)cc2)N(C)C(=O)CNC(C)=O)cc1 (stereo not given)	-8.3%	-1.9%	2.6%	0.0%	-7.4%
CCOc1cc(C(=O)Nc2ccc3oc(-c4ccc(F)cc4Cl)nc3c2)cc(OCC)c1OCC	?	?	/	-9.3%[12.3 µM]	-1.1%
COc1ccc(OCc2cc(C(=O)O)c(C)o2)cc1	/	/	/	14.1µM*	-30.3%
CN(CCCOc1ccccc1F)Cc1ccccc1	-3.4%	-25.3%	5.2%	/	-3.8%
Cc1ccc(-n2ncc(C(=O)Nc3cc(Cl)cc(Cl)c3)c2C2CCNCC2)cc1C	?	?	11.2µM*	4.6%	?
Cc1ccc(-n2ncc(C(=O)Nc3cc(Cl)ccc3Cl)c2C2CCNCC2)cc1	23.1µM*	23.1µM*	-4.8%	0.0%	6.6%
COc1ccc(NC(=O)c2cnn(-c3ccc(C)c(C)c3)c2C2CCNCC2)cc1OC	?	?	/	-3.8%	-4.4%
Cc1ccc(N2C(S)=C(C#N)C(=O)NC2c2cccs2)cc1 (stereo not given)	13µM*	14.6µM*	?	2.8%	-0.2%
Cc1ccc(N2C(S)=C(C#N)C(=O)NC2c2ccco2)cc1 (stereo not given)	?	23.1µM*	-3.1%	-4.8%	-0.2%
CCOC(=O)c1cc(-c2ccc(F)cc2)n(CCC(=O)NCc2ccc(C)cc2)c1C	20.6µM*	?	/	2.8%	11.2%
CCn1c(-c2ccc(C)cc2)nn(CC(=O)NCCc2ccccc2)c1=S	2.91µM*	2.91µM*	-17.2%	1.9%	?
CC(=O)c1cc(-c2ccc(F)cc2)n(CC(=O)NCc2ccc(C)cc2)c1C	8.2µM*	16.4µM*	/	-1.9%	8.7%
CC(=O)c1cc(-c2ccccc2)n(CC(=O)NCCc2ccc(C)cc2)c1C	8.2µM*	14.6µM*	/	0.0%	9.3%
CCCNC(=O)CCn1c(-c2ccc(C)cc2)cc(C(=O)OCC)c1C	?	?	0.5%	2.0%	-7.8%
Cc1cccc(C(=O)NCN2CCN(c3ccccc3C#N)CC2)c1	1.3%	-4.7%	-1.6%	8.0%[56.1 µM]	/
COC(=O)CCCCCCCCCC[N+]1(C)CCCCC1	-28.6%	9.2%	-9.8%	2.3%	-11.2%
C[N+]1(CC(=O)OC2CCCCCCCCCCC2)CCCC1	2.59µM*	4.11µM*	-5.0%	6.2%	28.5%
CCCCc1nc2ccccc2c(=O)n1NC(=O)c1c(O)c2ccccc2n(C)c1=O	3.66µM*	4.11µM*	-8.8%	-5.6%	-1.1%
CCCCCCNC(=O)c1c(O)c2cccc3c2n(c1=O)CCC3	29.1µM*	?	5.8%	-5.7%	-7.4%
Cc1nc2ccccc2c(=O)n1NC(=O)c1c(O)c2ccccc2n(C)c1=O	/	/	/	-2.4%	-2.6%
CCN(CC)CCNC(=O)c1c(O)c2cccc3c2n(c1=O)CCC3	?	?	-15.0%	9.6%	-30.5%
CCCc1nc2ccccc2c(=O)n1NC(=O)c1c(O)c2cccc3c2n(c1=O)CCC3	16.4µM*	?	4.7%	9.1%	-2.3%
CC(=O)c1ccc(C(=O)N(C)C2CCCN(Cc3ccccc3F)C2)s1 (stereo not given)	-27.4%	1.3%	3.9%	4.0%[56.1 µM]	-10.2%
CC(C)Nc1ncnc2c1ncn2[C@H]1CN(Cc2ccc(-c3ccccc3)cc2)C[C@@H](CO)O1	5.17µM*	4.61µM*	/	/	/
CC(C)CNc1ncnc2c1ncn2[C@H]1CN(Cc2ccc(-c3ccccc3)cc2)C[C@@H](CO)O1	4.11µM*	5.17µM*	/	/	/
CCN(CC)c1ncnc2c1ncn2[C@H]1CN(Cc2ccco2)C[C@@H](CO)O1	-18.2%	?	/	/	/
CCN(CC)c1ncnc2c1ncn2[C@H]1CN(Cc2ccc(-c3ccccc3)cc2)C[C@@H](CO)O1	16.4µM*	?	/	/	/
OCCN1CCN(c2ncnc3c2ncn3[C@H]2CN(Cc3ccc(-c4ccccc4)cc3)C[C@@H](CO)O2)CC1	6.51µM*	5.17µM*	/	/	/
CCc1nnc(NC(=O)C2c3ccccc3Oc3ccccc32)s1	?	?	-11.2%	0.0%	-0.1%
COc1ccc(OC)c(S(=O)(=O)N2CCC(C(=O)NCc3ccccc3OC)CC2)c1	-22.5%	13.6%	3.7%	-4.1%	-1.3%
CCOC(=O)C1C(C(=O)Nc2cccc(C(F)(F)F)c2)C1C(=O)NC(C)C (stereo not given)	4.1%	0.9%	1.0%	0.0%	-0.8%
CN(C)CCNc1ncnc2c1ncn2[C@H]1CN(Cc2ccc(-c3ccccc3)cc2)C[C@@H](CO)O1	20.6µM*	29.1µM*	/	/	/
N/C(=N\OC(=O)Nc1ccccc1)c1ncc([N+](=O)[O-])s1	8.2µM*	3.26µM*	-9.1%	/	16.3%

Complete entries, quoted from the list. Order of screens: DT40 TDP1 no CPT | DT40 TDP1 CPT | uPA generation | TDP1 inh | miR-21 reporter
Record of CCN(CC)c1ncnc2c1ncn2[C@H]1CN(Cc2ccc(-c3ccccc3)cc2)C[C@@H](CO)O1 → 16.4µM* | ? | / | / | /
Record of COC(=O)CCCCCCCCCC[N+]1(C)CCCCC1 → -28.6% | 9.2% | -9.8% | 2.3% | -11.2%
Record of CC(=O)c1ccc(C(=O)N(C)C2CCCN(Cc3ccccc3F)C2)s1 (stereo not given) → -27.4% | 1.3% | 3.9% | 4.0%[56.1 µM] | -10.2%
Record of N/C(=N\OC(=O)Nc1ccccc1)c1ncc([N+](=O)[O-])s1 → 8.2µM* | 3.26µM* | -9.1% | / | 16.3%
Record of COc1ccc(OC)c(S(=O)(=O)N2CCC(C(=O)NCc3ccccc3OC)CC2)c1 → -22.5% | 13.6% | 3.7% | -4.1% | -1.3%

Next compounds:
SMILES	DT40 TDP1 no CPT	DT40 TDP1 CPT	uPA generation	TDP1 inh	miR-21 reporter
O=C(Cc1ccc(Cl)cc1)Nc1ncc([N+](=O)[O-])s1	-28.8%	2.5%	7.0%	3.8%	-14.1%
O=C(COc1ccc(Cl)cc1)Nc1ncc([N+](=O)[O-])s1	23.1µM*	25.9µM*	-13.2%	5.4%	18.7%
O=C(Cc1ccc(Br)cc1)Nc1ncc([N+](=O)[O-])s1	13µM*	?	7.5%	-5.6%	7.6%
O=C(COC(=O)COc1ccccc1)Nc1ncc([N+](=O)[O-])s1	?	23.1µM*	-1.3%	-8.0%	/
CCOC(=O)CSc1nc(N)nc(C)c1Cl	?	?	2.8%	0.0%	2.1%
O=C(NNC(=O)c1ccccc1[N+](=O)[O-])c1cccs1	11.5%	-0.7%	7.3%	0.0%	-4.0%
Nn1c(SCC(=O)NC2CCCCC2)nnc1-c1ccco1	8.1%	3.8%	3.9%	0.1%	/
CCOC(=O)c1cc2c(C)n(-c3ccc(OCC)cc3)c(C)c2ccc1=O	14.6µM*	25.9µM*	-9.9%	9.6%	9.9%
